Where only a bound is given, the exact number is not on record here.

For the assay, the target named is recombinant CSE (cystathionine-γ-lyase) (UniProt P32929). The assay is described as follows: CSE In Vitro Assay. The settings on record: recombinant CSE 20 ug/ml, 50 uM PLP, DL-Homocysteine substrate, 3 hours at 37° C., absorbance at 671 nm.
In the case of `CNCCN(N)c1nnn[nH]1` [Compound 23], the IC50 is 25 to 100 µM.

With `NN(Cc1ccccc1)c1nnn[nH]1` [Compound 17], the IC50 was more than 100 µM.

As for `C#CCN(N)c1nnn[nH]1` [Compound 12], the IC50 was less than 25 µM.

`CCN(N)c1ncn[nH]1` [Compound 39]: the IC50 is more than 100 µM.

As to `CC/C(C)=N/Nc1nnn[nH]1` [Compound 34], the IC50 is less than 25 µM.

Regarding `CCN(N)C(=O)c1nnn[nH]1` [Compound 41], the IC50 was more than 100 µM.

Take `CN(C)CCN(N)c1nnn[nH]1` [Compound 11]: the IC50 is more than 100 µM.

For `NCCCN(N)c1nnn[nH]1` [Compound 21], the IC50 is less than 25 µM.

`Clc1ccc(/C=N/Nc2nnn[nH]2)c(Cl)c1` [Compound 28]: the IC50 is more than 100 µM.

For the compound `C#CC[C@H](N)C(=O)NS(C)(=O)=O` [Compound 9], the 50% inhibitory concentration (IC50) lay within 25 to 100 µM.

On to `C#CC[C@H](N)c1noc(=O)[nH]1` [Compound 3], for which the IC50 was less than 25 µM.

For `CC(C)=NNc1nnn[nH]1` [Compound 30], the IC50 is less than 25 µM.

Consider `CN(N)c1noc(=O)[nH]1` [Compound 40], for which the IC50 lay within 25 to 100 µM.

Consider `CC(C)=NN(C)c1nnn[nH]1` [Compound 37], for which the IC50 was less than 25 µM.

In the case of `NCCN(N)c1nnn[nH]1` [Compound 22], the IC50 was less than 25 µM.

Turning to `CN(C)CCCN(N)c1nnn[nH]1` [Compound 10], the IC50 lay within 25 to 100 µM.

Regarding `C1CCC(=NNc2nnn[nH]2)C1` [Compound 33], the IC50 was less than 25 µM.

As to `CNc1ccc(/C=N/N(C)c2nnn[nH]2)cc1` [Compound 36], the IC50 was in the range of 25 to 100 µM.

On to `C#C[C@H](N)c1nc(N)n[nH]1` [Compound 6], for which the IC50 was more than 100 µM.

In the case of `CCN(N)C(=O)Nc1nnn[nH]1` [Compound 42], the IC50 is more than 100 µM.

Take `CC(C)N(N)c1nnn[nH]1` [Compound 18]: the IC50 is more than 100 µM.

Regarding `COCCCN(N)c1nnn[nH]1` [Compound 14], the IC50 is more than 100 µM.

For the compound `CC(C)CN(N)c1nnn[nH]1` [Compound 19], the IC50 was more than 100 µM.

As to `C1CCC(=NNc2nnn[nH]2)CC1` [Compound 32], the IC50 was less than 25 µM.

On to `CN(C)c1ccc(/C=N/Nc2nnn[nH]2)cc1` [Compound 27], for which the IC50 lay in the range of 25 to 100 µM.

Take `C#CC[C@H](N)c1nnn[nH]1` [Compound 2]: the IC50 was less than 25 µM.

Regarding `CN(N)c1nnn[nH]1` [Compound 20], the IC50 is less than 25 µM.

With `C(=N\Nc1nnn[nH]1)/c1ccccc1` [Compound 26], the IC50 lay in the range of 25 to 100 µM.

In the case of `C#CC[C@H](N)C(=O)NS(=O)(=O)c1ccccc1` [Compound 8], the IC50 is 25 to 100 µM.

Take `C#CC[C@H](N)c1ncn[nH]1` [Compound 4]: the IC50 is less than 25 µM.

As to `N#CCC(N)c1nnn[nH]1` (centres unmarked) [Compound 1], the IC50 was more than 100 µM.

Turning to `CCN(N)C(=O)NS(=O)(=O)c1ccccc1` [Compound 43], the IC50 was more than 100 µM.

On to `CNCCCN(N)c1nnn[nH]1` [Compound 24], for which the IC50 is less than 25 µM.

`C/C(=N\Nc1nnn[nH]1)c1ccc(N(C)C)cc1` [Compound 31]: the IC50 is less than 25 µM.

As for `C#CC[C@H](N)c1nc(C(F)(F)F)n[nH]1` [Compound 5], the IC50 is more than 100 µM.

For the compound `CCCN(N)c1nnn[nH]1` [Compound 16], the half-inhibitory concentration (IC50) lay in the range of 25 to 100 µM.

`C#CC[C@H](N)C(=O)Nc1nn[nH]n1` [Compound 7]: the IC50 was in the range of 25 to 100 µM.

As to `Clc1ccc(/C=N/Nc2nnn[nH]2)cc1` [Compound 29], the IC50 is less than 25 µM.

What is called IC50 is the concentration needed to halve the response being measured.

(Values after patent US20150202186A1, “CYSTATHIONINE-(gamma)-LYASE (CSE) INHIBITORS FOR TREATING PAIN” (SOVA PHARMACEUTICALS, INC., priority 2014, published 2015).)
